Source: US20240018189A1 (Protagonist Therapeutics, Inc., priority 2020, published 2024)

Key:
[1] = Stability in simulated intestinal fluid (FaSSIF with pancreatin); assay type: in vitro ADME; settings: 20 μM, FaSSIF 1% pancreatin, 37° C.
Protocol: FaSSIF was prepared by dissolving 1.2 g porcine pancreatin (Chem-supply, PL378) in 100 mL Blank FaSSIF and stirred at room temperature for 30 minutes. The solution was filtered through 0.45 μm membrane and aliquot and stored at −20° C.
(§1) Experimental compounds of interest (20 μM) were incubated with pre-warmed FaSSIF (1% pancreatin in final incubation mixture) at 37° C. Aliquots were taken at various time points up to 24 hours (e.g. 0, 0.25, 1, 3, 6 and 24 hr), and immediately quenched with 4 volumes of organic solvent (acetonitrile/methanol (1:1) and 0.1% formic acid, containing 1 μM internal standard). Quenched samples were stored at 4° C. until the end of the experiment and centrifuged at 4,000 rpm for 10 minutes. The supernatant were diluted 1:1 with deionized water and analyzed using LC-MS. Percentage remaining at each time point was calculated based on the peak area ratio (analyte over internal standard) relative to the initial level at time zero. Half-lives were calculated by fitting to a first-order exponential decay equation using GraphPad.
Compounds of interest (at concentration of 20 μM) were mixed with pre-warmed FaSSIF (1% pancreatin in final working solution). The solution mixture was aliquoted and incubated at 37° C. The number of aliquots required was equivalent to the number of time points (e.g. 0, 0.25, 1, 3, 6 and 24 hr). At each time point, one aliquot was taken and immediately quenched with 4 volumes of organic solvent (acetonitrile/methanol (1:1) and 0.10% formic acid, containing 1 μM internal standard). The remaining steps were the same as the generic experimental.

[2] = Stability in simulated gastric fluid (SGF with pepsin); assay type: in vitro ADME; settings: 20 μM, SGF with pepsin pH 1.2, 37° C.
Protocol: Blank SGF was prepared by adding 2 g sodium chloride, 7 mL hydrochloric acid (37%) in a final volume of 1 L water, and adjusted pH to 1.2.
SGF was prepared by dissolving 320 mg Pepsin (Sigma®, P6887, from Porcine Stomach Mucosa) in 100 mL Blank SGF and stirred at room temperature for 30 minutes. The solution was filtered through 0.45 μm membrane and aliquot and stored at −20° C.
as §1, with “(at a concentration of 20” for “(20”, “SGF” for “FaSSIF (1% pancreatin in final incubation mixture)”, “(e.g.,” for “(e.g.”

human ferroportin = target: T1, human ferroportin (Homo sapiens, UniProt Q9NP59); test: FPN activity assay: internalization/degradation of ferroportin-GFP in stably transfected HEK293 cells; settings: read-out: FPN EC50; Table 3A; HEK293 ferroportin-GFP cells, at least 18 hours incubation
T1 sequence (Q9NP59 1-571): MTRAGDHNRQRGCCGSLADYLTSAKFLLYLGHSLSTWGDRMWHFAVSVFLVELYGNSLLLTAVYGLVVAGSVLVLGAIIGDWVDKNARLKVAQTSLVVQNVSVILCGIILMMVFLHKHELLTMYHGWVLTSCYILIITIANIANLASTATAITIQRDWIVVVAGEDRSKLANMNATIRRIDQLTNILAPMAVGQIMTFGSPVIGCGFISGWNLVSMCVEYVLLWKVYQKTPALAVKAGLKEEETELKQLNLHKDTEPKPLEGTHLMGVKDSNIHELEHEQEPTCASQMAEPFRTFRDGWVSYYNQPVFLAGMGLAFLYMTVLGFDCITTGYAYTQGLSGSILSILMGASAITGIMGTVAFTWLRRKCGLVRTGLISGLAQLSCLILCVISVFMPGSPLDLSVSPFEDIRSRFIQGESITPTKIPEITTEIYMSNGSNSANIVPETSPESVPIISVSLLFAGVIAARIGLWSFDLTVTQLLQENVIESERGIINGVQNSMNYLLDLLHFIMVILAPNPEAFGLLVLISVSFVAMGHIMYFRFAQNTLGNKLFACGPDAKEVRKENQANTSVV

Substance	SIF Half life [1] [min]	SGF Half life [2] [min]	DC50 (human ferroportin) [nM]	SIF, percentage in parentheses beside half life (meaning not defined) [1] [%]	SGF, percentage in parentheses beside half life (meaning not defined) [2] [%]
Isovaleric acid-D-T-H-[Dpa]-P-C-I-(D)Lys-bhPhe-[Lys(Ahx-Palm)]-R-C-NH2 [Compound 2]	78	144	11.8	–	–
Isovaleric acid-DTHFPCIKF-Lys[PEG11-Palm]-PRSK-[SAR]-CK-NH2 [Ref. Cmpd. 2]	< 15	26	–	1	–
Isovaleric acid-DTHFPCIKF-Lys[PEG11-Palm]-PRSKGCK-NH2 [Ref. Cmpd. 1]	< 15	< 15	–	1	6
